In patent US9296734B2 (AMGEN INC., priority 2013, dated 2016):
Where two headings read alike, the source gives them in different places.

Chains of the proteins cited; added tags and fusions are not shown. Residues count along the entry.
UniProt P56817, 46-501: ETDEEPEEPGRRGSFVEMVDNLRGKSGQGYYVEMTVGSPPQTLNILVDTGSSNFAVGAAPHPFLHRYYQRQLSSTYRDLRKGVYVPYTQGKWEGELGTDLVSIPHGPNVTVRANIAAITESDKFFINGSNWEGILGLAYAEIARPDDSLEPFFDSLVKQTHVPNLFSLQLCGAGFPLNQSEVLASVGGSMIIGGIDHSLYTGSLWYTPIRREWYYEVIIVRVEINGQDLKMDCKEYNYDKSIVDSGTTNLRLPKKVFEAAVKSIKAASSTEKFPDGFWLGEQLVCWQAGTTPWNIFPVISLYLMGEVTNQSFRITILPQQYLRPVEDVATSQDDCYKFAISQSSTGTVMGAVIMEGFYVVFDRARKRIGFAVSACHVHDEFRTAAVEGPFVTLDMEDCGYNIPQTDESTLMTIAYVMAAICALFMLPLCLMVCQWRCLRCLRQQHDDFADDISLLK

Experiments:
[1] = tested on: Aβ40 in conditioned medium of cells stably expressing Amyloid Precursor Protein (APP); assay: In vitro BACE cell-based assay (Aβ40 sandwich ELISA); details: Homo sapiens
Description: In Vitro BACE Cell-Based Assay
The cell-based assay measures inhibition or reduction of Aβ40 in conditioned medium of test compound treated cells expressing amyloid precursor protein.
Cells stably expressing Amyloid Precursor Protein (APP) were plated at a density of 40K cells/well in 96 well plates (Costar). The cells were cultivated for 24 hours at 37° C. and 5% CO2 in DMEM supplemented with 10% FBS. The test compounds were then added to cells in 10-point dose response concentrations with the starting concentration being either 100 μM or 10 μM. The compounds were diluted from stock solutions in DMSO and the final DMSO concentration of the test compounds on cells was 0.1%. After 24 h of incubation with the test compounds the supernatant conditioned media was collected and the Aβ 40 levels were determined using a sandwich ELISA. The IC50 of the compound was calculated from the percent of control or percent inhibition of Aβ 40 as a function of the concentration of the test compound.
The sandwich ELISA to detect Aβ 40 was performed in 96 well microtiter plates, which were pre-treated with goat anti-rabbit IgG (Pierce). The capture and detecting antibody pair that were used to detect Aβ 40 from cell supernatants were affinity purified pAb40 (Biosource) and biotinylated 6E10 (Signet Labs Inc.), respectively. The optimal concentration for the pAb40 antibody was 3 μg/ml in Superblock/TBS (Pierce) that was supplemented with 0.05% Tween 20 (Sigma).
Cellular supernatants were incubated with the capture antibody for 3 h at 4° C., followed by 3 wash steps in TBS-tween (0.05%). The detecting antibody incubation was for 2 h at 4° C., again followed by the wash steps as described previously. The final readout of the ELISA is Time-Resolved Fluorescence (counts per minute) using Delfia reagents Streptavidin-Europium and Enhancement solutions (Perkin Elmer) and the Victor 2 multilabel counter (Perkin Elmer).

[2] = target: Beta Secretase enzyme (BACE) (Homo sapiens (Human), UniProt P56817); assay: In vitro enzymatic BACE FRET assay; format: biochemical; details: read-out: BACE 1 FRET assay IC50
Description: In Vitro Enzymatic BACE FRET (Fluorescence Resonance Energy Transfer) Assay (Enzyme Assay Data in the Example Table I)
The assay buffer used in this screen is 0.05 M acetate, pH 4.2, 10% DMSO final, 100 uM genapol (which is a nonionic detergent, below its Critical Micelle Concentration). […] This assay is effectively started by the addition of FRET substrate (50 nM) and the combination is incubated for one hour. The FRET assay is terminated with by addition of Tris buffer, which raises the pH to neutrality, and the fluorescence is determined. The FRET substrate is a peptide with commercially available fluorophore and quencher, on opposite sides of the BACE cleavage site.

[3] = HEK293, average IC50, HEK cell assay, read-out: HEK cell assay IC50
[4] = average IC50, BACE enzyme assay
[5] = HEK293, average IC50, HEK cells, read-out: HEK cell assay IC50
[6] = HEK293, HEK cells, average, read-out: HEK cell assay IC50

SMILES | IC50 [1, 3] | IC50 [2, 4] | IC50 [1, 5] | IC50 ([2]; average IC50) | also measured
COc1cnc(C(=O)Nc2cnc(F)c([C@]3(C)C[C@@H](C(F)(F)F)OC(N)=N3)c2)cn1 [Example 70, N-(5-((4S,6S)-2-amino-4-methyl-6-(trifluoromethyl)-5,6-dihydro-4H-1,3-oxazin-4-yl)-6-fluoropyridin-3-yl)-5-methoxypyrazine-2-carboxamide] | 31 nM | 102 nM | – | – | –
C#CCOc1cnc(C(=O)Nc2cnc(F)c([C@]3(C)C[C@@H](C(F)(F)F)OC(N)=N3)c2)cn1 [Example 73, N-(5-((4S,6S)-2-amino-4-methyl-6-(trifluoromethyl)-5,6-dihydro-4H-1,3-oxazin-4-yl)-6-fluoropyridin-3-yl)-5-(prop-2-yn-1-yloxy)pyrazine-2-carboxamide] | – | – | – | – | IC50 [1, 6]: 2.5 nM; IC50 ([2]; average): 4.7 nM
C[C@@]1(c2cc(Nc3ncc(F)c4cc(C#N)cnc34)cnc2F)C[C@@H](C(F)(F)F)OC(N)=N1 [Example 78, 8-((5-((4S,6S)-2-amino-4-methyl-6-(trifluoromethyl)-5,6-dihydro-4H-1,3-oxazin-4-yl)-6-fluoropyridin-3-yl)amino)-5-fluoro-1,7-naphthyridine-3-carbonitrile] | – | – | 64.1 nM | 61.3 nM | –
C[C@@]1(c2nc(NC(=O)c3ncc(C(F)(F)F)cc3Cl)ccc2F)C[C@@H](C(F)(F)F)OC(N)=N1 [Example 81, N-(6-((4S,6S)-2-amino-4-methyl-6-(trifluoromethyl)-5,6-dihydro-4H-1,3-oxazin-4-yl)-5-fluoropyridin-2-yl)-3-chloro-5-(trifluoromethyl)-picolinamide] | – | – | 18.6 nM | 124 nM | –
C[C@@]1(c2nc(NC(=O)c3ncc(Br)cc3Cl)ccc2F)C[C@@H](C(F)(F)F)OC(N)=N1 [Example 86, N-(6-((4S,6S)-2-amino-4-methyl-6-(trifluoromethyl)-5,6-dihydro-4H-1,3-oxazin-4-yl)-5-fluoropyridin-2-yl)-5-bromo-3-chloropicolinamide] | – | – | 21.9 nM | 33.6 nM | –
C[C@@]1(c2nc(Nc3ncc(F)c4cc(C#N)cnc34)ccc2F)C[C@@H](C(F)(F)F)OC(N)=N1 [Example 89, 8-((6-((4S,6S)-2-amino-4-methyl-6-(trifluoromethyl)-5,6-dihydro-4H-1,3-oxazin-4-yl)-5-fluoropyridin-2-yl)amino)-5-fluoro-1,7-naphthyridine-3-carbonitrile] | – | – | 383 nM | 188 nM | –
NC1=N[C@](CF)(c2cc(NC(=S)c3ccc(Cl)cn3)ccc2F)C[C@@H](C(F)(F)F)O1 [Example 91, N-(3-((4S,6S)-2-amino-4-(fluoromethyl)-6-(trifluoromethyl)-5,6-dihydro-4H-1,3-oxazin-4-yl)-4-fluorophenyl)-5-chloropyridine-2-carbothioamide] | – | – | – | – | IC50 [1, 6]: 548 nM; IC50 ([2]; average): 86 nM
NC1=N[C@](CF)(c2cc(Oc3ncccc3F)ccc2F)C[C@@H](C(F)(F)F)O1 [Example 94] | – | – | – | 398 nM | IC50 ([1]; HEK293, read-out: HEK cell assay IC50): 294 nM
C#CCOC1CCN(C(=O)Nc2ccc(F)c([C@]3(C)C[C@@H](C(F)(F)F)OC(N)=N3)c2)CC1 [Example 120, N-(3-((4S,6S)-2-amino-4-methyl-6-(trifluoromethyl)-5,6-dihydro-4H-1,3-oxazin-4-yl)-4-fluorophenyl)-4-(prop-2-yn-1-yloxy)piperidine-1-carboxamide] | 1140 nM | 13700 nM | – | – | –
C[C@@]1(c2cc(NC(=O)N3CCc4ccccc4C3)ccc2F)C[C@@H](C(F)(F)F)OC(N)=N1 [Example 121, N-(3-((4S,6S)-2-amino-4-methyl-6-(trifluoromethyl)-5,6-dihydro-4H-1,3-oxazin-4-yl)-4-fluorophenyl)-3,4-dihydroisoquinoline-2(1H)-carboxamide] | 687 nM | 7530 nM | – | – | –
C[C@@]1(c2cc(NC(=O)N3CCC(C(F)F)CC3)ccc2F)C[C@@H](C(F)(F)F)OC(N)=N1 [Example 122, N-(3-((4S,6S)-2-amino-4-methyl-6-(trifluoromethyl)-5,6-dihydro-4H-1,3-oxazin-4-yl)-4-fluorophenyl)-4-(difluoromethyl)piperidine-1-carboxamide] | 826 nM | 2450 nM | – | – | –
C[C@@]1(c2cc(NC(=O)N3CC=C(C#CC4CC4)CC3)ccc2F)C[C@@H](C(F)(F)F)OC(N)=N1 [Example 124, N-(3-((4S,6S)-2-amino-4-methyl-6-(trifluoromethyl)-5,6-dihydro-4H-1,3-oxazin-4-yl)-4-fluorophenyl)-4-(cyclopropylethynyl)-5,6-dihydropyridine-1(2H)-carboxamide] | 525 nM | 1680 nM | – | – | –

Now from value to molecule, other results behind:

IC50 [1, 3] | IC50 [2, 4] | IC50 [1, 5] | IC50 ([2]; average IC50) | SMILES | also measured
24 nM | 119 nM | – | – | COc1ccc(C(=O)Nc2cnc(F)c([C@]3(C)C[C@@H](C(F)(F)F)OC(N)=N3)c2)nc1 [Example 63, N-(5-((4S,6S)-2-amino-4-methyl-6-(trifluoromethyl)-5,6-dihydro-4H-1,3-oxazin-4-yl)-6-fluoropyridin-3-yl)-5-methoxypicolinamide] | –
– | – | 25.3 nM | 48.5 nM | COc1cnc(C(=O)Nc2cnc(F)c([C@]3(C)C[C@@H](C(F)(F)F)OC(N)=N3)c2)c(Cl)c1 [Example 69, N-(5-((4S,6S)-2-amino-4-methyl-6-(trifluoromethyl)-5,6-dihydro-4H-1,3-oxazin-4-yl)-6-fluoropyridin-3-yl)-3-chloro-5-methoxypicolinamide] | –
51 nM | 254 nM | – | – | COc1cnc(C(=O)Nc2ccc(F)c([C@]3(C)C[C@@H](C(F)(F)F)OC(N)=N3)n2)c(Cl)c1 [Example 80, N-(6-((4S,6S)-2-amino-4-methyl-6-(trifluoromethyl)-5,6-dihydro-4H-1,3-oxazin-4-yl)-5-fluoropyridin-2-yl)-3-chloro-5-methoxypicolinamide] | –
– | – | 4.5 nM | 18.8 nM | C[C@@]1(c2nc(NC(=O)c3ncc(C#N)cc3Cl)ccc2F)C[C@@H](C(F)(F)F)OC(N)=N1 [Example 82, N-(6-((4S,6S)-2-amino-4-methyl-6-(trifluoromethyl)-5,6-dihydro-4H-1,3-oxazin-4-yl)-5-fluoropyridin-2-yl)-3-chloro-5-cyanopicolinamide] | –
– | – | 3270 nM | 8130 nM | CNC(=O)c1ccnc(Oc2ccc(F)c([C@]3(CF)C[C@@H](C(F)(F)F)OC(N)=N3)c2)c1 [Example 96, 2-(3-((4S,6S)-2-amino-4-(fluoromethyl)-6-(trifluoromethyl)-5,6-dihydro-4H-1,3-oxazin-4-yl)-4-fluorophenoxy)-N-methylisonicotinamide] | –
– | – | 1500 nM | 993 nM | NC1=N[C@](CF)(c2cc(Oc3ncccc3Cl)ccc2F)C[C@@H](C(F)(F)F)O1 [Example 97, (4S,6S)-4-(5-((3-chloropyridin-2-yl)oxy)-2-fluorophenyl)-4-(fluoromethyl)-6-(trifluoromethyl)-5,6-dihydro-4H-1,3-oxazin-2-amine] | –
– | – | 3760 nM | 3170 nM | NC1=N[C@](CF)(c2cc(Oc3cc(C(F)(F)F)ccn3)ccc2F)C[C@@H](C(F)(F)F)O1 [Example 99, (4S,6S)-4-(2-Fluoro-5-((4-(trifluoromethyl)pyridin-2-yl)oxy)phenyl)-4-(fluoromethyl)-6-(trifluoromethyl)-5,6-dihydro-4H-1,3-oxazin-2-amine] | –
2110 nM | 560 nM | – | – | NC1=N[C@](CF)(c2cc(Oc3ccccn3)ccc2F)C[C@@H](C(F)(F)F)O1 [Example 101, (4S,6S)-4-(2-fluoro-5-(pyridin-2-yloxy)phenyl)-4-(fluoromethyl)-6-(trifluoromethyl)-5,6-dihydro-4H-1,3-oxazin-2-amine] | –
– | – | 3850 nM | 3420 nM | N#Cc1cncc(-c2ccc(F)c([C@]3(CF)C[C@@H](C(F)(F)F)OC(N)=N3)c2)c1 [Example 103, 5-(3-((4S,6S)-2-amino-4-(fluoromethyl)-6-(trifluoromethyl)-5,6-dihydro-4H-1,3-oxazin-4-yl)-4-fluorophenyl)nicotinonitrile] | –
1250 nM | 318 nM | – | – | CC#Cc1cncc(-c2ccc(F)c([C@]3(CF)C[C@@H](C(F)(F)F)OC(N)=N3)c2)c1 [Example 104, (4S,6S)-4-(2-fluoro-5-(5-(prop-1-yn-1-yl)pyridin-3-yl)phenyl)-4-(fluoromethyl)-6-(trifluoromethyl)-5,6-dihydro-4H-1,3-oxazin-2-amine] | –
